Assay results reported in patent US8399480B2, “Hydroxymethyl pyrrolidines as beta 3 adrenergic receptor agonists” (Merck Sharp & Dohme Corp., priority 2008, dated 2013).

By UniProt entry, the sequences of proteins in these tests, tags left out.
UniProt P13945, whole entry: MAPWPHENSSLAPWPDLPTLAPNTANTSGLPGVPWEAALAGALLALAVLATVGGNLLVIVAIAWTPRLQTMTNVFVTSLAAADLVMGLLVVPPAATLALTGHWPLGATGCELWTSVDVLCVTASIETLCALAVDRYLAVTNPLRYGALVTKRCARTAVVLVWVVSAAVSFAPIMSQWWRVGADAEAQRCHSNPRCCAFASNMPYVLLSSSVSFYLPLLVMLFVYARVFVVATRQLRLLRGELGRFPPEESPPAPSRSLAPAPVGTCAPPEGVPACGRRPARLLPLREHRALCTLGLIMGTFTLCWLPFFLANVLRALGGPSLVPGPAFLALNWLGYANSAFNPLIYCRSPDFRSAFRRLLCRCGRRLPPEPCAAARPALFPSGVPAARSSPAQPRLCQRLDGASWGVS

target: human β3 adrenergic receptor (Homo sapiens, UniProt P13945); experiment: Functional assay: cAMP production (LANCE TR-FRET) in CHO cells stably transfected with cloned β3 adrenergic receptor; format: cell-based; details: read-out: Human β3 Functional; Table 5

**Q.** `Cc1nnc(C(C)C(=O)Nc2ccc(C[C@@H]3CC[C@H]([C@H](O)c4ccccc4)N3)cc2)[nH]1` (single isomer, unassigned) was tested. Which EC50 did it give?
**A.** 1 to 10 nM

**Q.** With `Nc1nc2c(s1)CCC2C(=O)Nc1ccc(C[C@@H]2CC[C@H]([C@H](O)c3ccccc3)N2)cc1` (single isomer, unassigned) [114] as the molecule, how does the EC50 read?
**A.** 1 to 10 nM

**Q.** How did the EC50 turn out when `CC(C(=O)Nc1ccc(C[C@@H]2CC[C@H]([C@H](O)c3ccccc3)N2)cc1)n1cnccc1=O` (single isomer, unassigned) was run?
**A.** 1 to 10 nM

**Q.** With `CC(C(=O)Nc1ccc(C[C@@H]2CC[C@H]([C@H](O)c3ccccc3)N2)cc1)c1nnn(C)n1` (single isomer, unassigned) [175] as the molecule, how does the EC50 read?
**A.** 1 to 10 nM

**Q.** With `O=C(Nc1ccc(C[C@@H]2CC[C@H]([C@H](O)c3ccccc3)N2)cc1)[C@H]1CCc2scnc21` as the molecule, how does the EC50 read?
**A.** 11 to 100 nM

**Q.** Which EC50 does the source give for `O=C(Nc1ccc(C[C@@H]2CC[C@H]([C@H](O)c3ccccc3)N2)cc1)C1Cc2ccccc2C1` here?
**A.** 101 to 1000 nM

**Q.** How did the EC50 turn out when `O=C(Nc1ccc(C[C@@H]2CC[C@H]([C@H](O)c3ccccc3)N2)cc1)C1CCc2scnc21` (single isomer, unassigned) was run?
**A.** < 1 nM

same assay, conditions: read-out: Human β3 Functional; Table 6

**Q.** `Nc1nc2c(s1)CCC2C(=O)Nc1ccc(C[C@H]2CC[C@H]([C@H](O)c3ccccc3)N2)cc1` (single isomer, unassigned) [225] was tested. Which EC50 did it give?
**A.** 11 to 100 nM

**Q.** `Nc1nc2c(s1)CCC2C(=O)Nc1ccc(C[C@H]2CC[C@H]([C@H](O)c3ccccc3)N2)cc1` (single isomer, unassigned) [226] was tested. Which EC50 did it give?
**A.** 101 to 1000 nM

**Q.** For `Cc1nc2c(s1)CCC2C(=O)Nc1ccc(C[C@H]2CC[C@H]([C@H](O)c3ccccc3)N2)cc1` (single isomer, unassigned) [229], which EC50 is on record?
**A.** 11 to 100 nM

**Q.** For `Cc1nc2c(s1)CCC2C(=O)Nc1ccc(C[C@H]2CC[C@H]([C@H](O)c3ccccc3)N2)cc1` (single isomer, unassigned) [230], which EC50 is on record?
**A.** 101 to 1000 nM

same assay, conditions: read-out: Human β3 Functional; Table 7; β3AR-cAMP

**Q.** How did the EC50 turn out when `O=S(=O)(Nc1ccc(C[C@@H]2CC[C@H]([C@H](O)c3ccccc3)N2)cc1)c1cc(C(F)(F)F)cc(C(F)(F)F)c1` was run?
**A.** 11 to 100 nM

same assay, conditions: read-out: Human β Binding; Table 4; human β3 functional activity

**Q.** How did the EC50 turn out when `O=C(Cn1cnccc1=O)Nc1ccc(C[C@@H]2CC[C@H]([C@H](O)c3ccccc3)N2)cc1` was run?
**A.** 1 to 10 nM

**Q.** For `O=C(Cn1c(=O)ccc2ncccc21)Nc1ccc(C[C@@H]2CC[C@H]([C@H](O)c3ccccc3)N2)cc1`, which EC50 is on record?
**A.** 101 to 1000 nM

**Q.** How did the EC50 turn out when `O=C(Cn1ccccc1=O)Nc1ccc(C[C@@H]2CC[C@H]([C@H](O)c3ccccc3)N2)cc1` was run?
**A.** 1 to 10 nM

**Q.** Which EC50 does the source give for `O=C(Cn1c(=O)cnc2ccccc21)Nc1ccc(C[C@@H]2CC[C@H]([C@H](O)c3ccccc3)N2)cc1` here?
**A.** 1 to 10 nM

**Q.** How did the EC50 turn out when `O=C(CC1C=NC=NC1=O)Nc1ccc(C[C@@H]2CC[C@H]([C@H](O)c3ccccc3)N2)cc1` (some centres unmarked) was run?
**A.** 11 to 100 nM

**Q.** For `O=C(Nc1ccc(C[C@@H]2CC[C@H]([C@H](O)c3ccccc3)N2)cc1)C1CCCN1c1ccc(Br)cc1` (some centres unmarked), which EC50 is on record?
**A.** 101 to 1000 nM

**Q.** `Cc1cnn(CC(=O)Nc2ccc(C[C@@H]3CC[C@H]([C@H](O)c4ccccc4)N3)cc2)c(=O)c1` was tested. Which EC50 did it give?
**A.** 1 to 10 nM

same assay, conditions: read-out: Human β^3 Functional; Table 9; tested form: TFA

**Q.** How did the EC50 turn out when `C[C@@H](C(=O)Nc1ccc(C[C@@H]2CC[C@H]([C@H](O)c3ccccc3)N2)cc1)N(C)C(=O)c1ccccc1F` was run?
**A.** 11 to 100 nM
